Reference: patent US20250289804A1, “SUBSTITUTED INDOLE COMPOUNDS AND METHODS OF USE THEREOF” (NOVARTIS PHARMA AG, priority 2021, published 2025)

Sequences of proteins named here, by UniProt entry; tags and fusion partners are left off. Residues count along the entry.
UniProt P00751, 260-764: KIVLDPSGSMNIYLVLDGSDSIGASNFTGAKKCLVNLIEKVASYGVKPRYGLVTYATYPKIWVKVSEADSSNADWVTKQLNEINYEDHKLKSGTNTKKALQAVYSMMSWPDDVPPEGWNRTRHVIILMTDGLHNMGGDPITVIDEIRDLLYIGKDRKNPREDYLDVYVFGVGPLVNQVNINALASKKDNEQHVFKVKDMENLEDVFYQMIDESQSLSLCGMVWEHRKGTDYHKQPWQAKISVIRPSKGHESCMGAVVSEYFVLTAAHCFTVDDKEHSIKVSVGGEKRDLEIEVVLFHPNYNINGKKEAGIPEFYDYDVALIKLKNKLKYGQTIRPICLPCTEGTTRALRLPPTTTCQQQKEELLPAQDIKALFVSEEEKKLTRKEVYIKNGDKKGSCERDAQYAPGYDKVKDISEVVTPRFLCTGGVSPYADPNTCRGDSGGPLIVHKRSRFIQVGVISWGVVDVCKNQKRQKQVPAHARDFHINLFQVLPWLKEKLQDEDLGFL

Target: human C3bBb (Homo sapiens (Human), UniProt P00751)
Assay: Human C3bBb enzyme assay (C3a generation from C3, ELISA)
Assay type: biochemical
Settings: starred values: assay conducted with 1 nM C3b:Bb enzyme
Protocol: Compounds disclosed herein were evaluated for their potency to inhibit human C3bBb in a biochemical assay. To generate active C3bBb complex in vitro, purified human C3b (Complement Technology, A114), CFB (Complement Technology, A135) and CFD (Complement Technology, A136) were mixed in a 1:1:1 ratio to a final concentration of 1 μM each in the C3bBb assay buffer (PBS pH 7.4, 100 μM NiCl2, 0.05% (w/v) CHAPS). The reaction mix was incubated at room temperature for 30 minutes on a rotating platform. […] On the day of the enzyme assay, a reaction mixture containing 3 nM C3bBb complex and 1 μM purified human C3 (Complement Technology, A113) was prepared in the C3bBb assay buffer. Compounds were serial diluted 3-fold in 100% DMSO for a 10-point dose-response curve. A 0.5 μL aliquot of diluted compound solution was transferred to a conical bottom 96-well plate, before 49.5 μL of the reaction mix was added to each well to initiate the reaction. The plate was incubated for 1 hour at room temperature. […] The generation of C3a from C3 by the C3bBb complex was measured using the MicroVue C3a Plus EIA ELISA kit (Quidel, A031). The concentration of C3a from each well was calculated using a standard curve. Percent inhibition values were generated using the baseline (C3 only) and the maximum control (DMSO instead of compound), and IC50 of each compound was calculated using 4-parameter logistic regression.

## COc1cc(C)c2[nH]ccc2c1CN1CC[C@H](C2CC2)C[C@H]1c1ccc(C(=O)O)cc1 [Example 41, 4-((2S,4S)-4-cyclopropyl-1-((5-methoxy-7-methyl-1H-indol-4-yl)methyl)piperidin-2-yl)benzoic acid]
  IC50: < 0.01 µM
